Tests used:
human hemoglobin (human) [1] = biological target: human hemoglobin (human) (UniProt P69905); assay: OC-Hemodia Auto III immunoassay, Hb 6.2 pmol/mL, Hpt 1.55 pmol/mL (0.25 Unit), no stool, initial value
human hemoglobin (human) [2] = biological target: human hemoglobin (human) (UniProt P69905); assay: OC-Hemodia Auto III immunoassay, Hb 9.3 pmol/mL, Hpt 4.65 pmol/mL (0.5 Unit), 0.5% feces, initial value
human hemoglobin (human) [3] = biological target: human hemoglobin (human) (UniProt P69905); assay: 59.4 µg/mL (921 pmol/mL) Hb + Hpt original solution at 0.125 % (vol/vol); free Hb by latex reagent No.16 + No.11
human hemoglobin (human) [4] = biological target: human hemoglobin (human) (UniProt P69905); assay: 59.4 µg/mL (921 pmol/mL) Hb + Hpt original solution at 0.500 % (vol/vol); free Hb by latex reagent No.16 + No.11
human hemoglobin (human) [5] = biological target: human hemoglobin (human) (UniProt P69905); assay: 59.4 µg/mL (921 pmol/mL) Hb + Hpt original solution at 0.250 % (vol/vol); free Hb by latex reagent No.16 + No.11
human hemoglobin (human) [6] = biological target: human hemoglobin (human) (UniProt P69905); assay: OC-Hemodia Auto III immunoassay, Hb 6.2 pmol/mL, Hpt 0.775 pmol/mL (0.125 Unit), no stool, initial value
human hemoglobin (human) [7] = biological target: human hemoglobin (human) (UniProt P69905); assay: OC-Hemodia Auto III immunoassay, Hb 9.3 pmol/mL, Hpt 2.325 pmol/mL (0.25 Unit), 0.5% feces, initial value
human hemoglobin (human) [8] = biological target: human hemoglobin (human) (UniProt P69905); assay: extrapolated end point of the titration of 921 pmol/mL Hb (straight-line fit of Table 6A)
human hemoglobin (human) [9] = biological target: human hemoglobin (human) (UniProt P69905); assay: 59.4 µg/mL (921 pmol/mL) Hb + Hpt original solution at 1.000 % (vol/vol); free Hb by latex reagent No.16 + No.11
human hemoglobin (human) [10] = biological target: human hemoglobin (human) (UniProt P69905); assay: OC-Hemodia Auto III immunoassay, Hb 9.3 pmol/mL, Hpt 9.3 pmol/mL (1 Unit), 0.5% feces, initial value
human hemoglobin (human) [11] = biological target: human hemoglobin (human) (UniProt P69905); assay: 59.4 µg/mL (921 pmol/mL) Hb + Hpt original solution at 0.063 % (vol/vol); free Hb by latex reagent No.16 + No.11
human hemoglobin (human) [12] = biological target: human hemoglobin (human) (UniProt P69905); assay: OC-Hemodia Auto III immunoassay, Hb 6.2 pmol/mL, Hpt 6.2 pmol/mL (1 Unit), no stool, initial value
human hemoglobin (human) [13] = biological target: human hemoglobin (human) (UniProt P69905); assay: OC-Hemodia Auto III immunoassay, Hb 6.2 pmol/mL, Hpt 3.1 pmol/mL (0.5 Unit), no stool, initial value
human hemoglobin (human) [14] = biological target: human hemoglobin (human) (UniProt P69905); assay: cell-based or functional assay

By UniProt entry, the sequences of proteins in these tests, tags left out. Residues count along the entry.
UniProt P69905, 2-142, chain 1 of 2: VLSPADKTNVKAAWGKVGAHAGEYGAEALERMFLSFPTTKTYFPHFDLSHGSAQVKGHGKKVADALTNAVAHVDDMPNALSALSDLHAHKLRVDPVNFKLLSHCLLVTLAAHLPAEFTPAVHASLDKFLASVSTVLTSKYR

Row | Ratio to no Hpt addition (%) (human hemoglobin (human) [1]) | Ratio to no Hpt addition (%) (human hemoglobin (human) [2]) | free-Hb concentration remaining (human hemoglobin (human) [3]) [µg/mL] | free-Hb concentration remaining (human hemoglobin (human) [4]) [µg/mL] | free-Hb concentration remaining (human hemoglobin (human) [5]) [µg/mL] | Ratio to no Hpt addition (%) (human hemoglobin (human) [6]) | Ratio to no Hpt addition (%) (human hemoglobin (human) [7]) | Amount of Hpt original solution when free-Hb concentration became 0 (human hemoglobin (human) [8]) | free-Hb concentration remaining (human hemoglobin (human) [9]) [µg/mL] | Ratio to no Hpt addition (%) (human hemoglobin (human) [10]) | free-Hb concentration remaining (human hemoglobin (human) [11]) [µg/mL] | Ratio to no Hpt addition (%) (human hemoglobin (human) [12]) | Ratio to no Hpt addition (%) (human hemoglobin (human) [13]) | Residual Hb ratio (%), 37°C 7 days, Hpt 0.775 pmol/mL (0.125 Unit), no stool (human hemoglobin (human) [14]) [%] | Residual Hb ratio (%), 37°C 7 days, Hpt 1.55 pmol/mL (0.25 Unit), no stool (human hemoglobin (human) [14]) [%] | Residual Hb ratio (%), 37°C 7 days, Hpt 2.325 pmol/mL (0.25 Unit), 0.5% feces (human hemoglobin (human) [14]) [%] | Residual Hb ratio (%), 37°C 7 days, Hpt 3.1 pmol/mL (0.5 Unit), no stool (human hemoglobin (human) [14]) [%] | Residual Hb ratio (%), 37°C 7 days, Hpt 4.65 pmol/mL (0.5 Unit), 0.5% feces (human hemoglobin (human) [14]) [%] | Residual Hb ratio (%), 37°C 7 days, Hpt 6.2 pmol/mL (1 Unit), no stool (human hemoglobin (human) [14]) [%] | Residual Hb ratio (%), 37°C 7 days, Hpt 9.3 pmol/mL (1 Unit), 0.5% feces (human hemoglobin (human) [14]) [%] | Substance | other results
1 | 101 | 101 | 51.8 | 34.7 | 45.3 | 101 | 100 | 1.35 % (vol/vol) | 15.6 | 96 | 55.4 | 93 | 106 | 47 | 52 | 22 | 51 | 36 | 97 | 74 | Equine dHpt (ENGase) | Residual Hb ratio (%), 37°C 14 days, Hpt 0.775 pmol/mL (0.125 Unit), no stool (human hemoglobin (human) [14]): 25%; Residual Hb ratio (%), 37°C 14 days, Hpt 1.55 pmol/mL (0.25 Unit), no stool (human hemoglobin (human) [14]): 34%; Residual Hb ratio (%), 37°C 14 days, Hpt 2.325 pmol/mL (0.25 Unit), 0.5% feces (human hemoglobin (human) [14]): 19%; Residual Hb ratio (%), 37°C 14 days, Hpt 3.1 pmol/mL (0.5 Unit), no stool (human hemoglobin (human) [14]): 34%; Residual Hb ratio (%), 37°C 14 days, Hpt 4.65 pmol/mL (0.5 Unit), 0.5% feces (human hemoglobin (human) [14]): 34%; Residual Hb ratio (%), 37°C 14 days, Hpt 6.2 pmol/mL (1 Unit), no stool (human hemoglobin (human) [14]): 99%; Residual Hb ratio (%), 37°C 14 days, Hpt 9.3 pmol/mL (1 Unit), 0.5% feces (human hemoglobin (human) [14]): 73%; residual Hb ratio, 1 Unit of Hpt, 37°C 7 days, no stool (human hemoglobin (human) [14]): > 70%
2 | 90 | 85 | 58.3 | 51 | 54.6 | 94 | 93 | 3.62 % (vol/vol) | 43.2 | 67 | 58.2 | 50 | 74 | 46 | 48 | 21 | 63 | 39 | 102 | 93 | Equine Hpt (without enzyme treatment) | Residual Hb ratio (%), 37°C 14 days, Hpt 0.775 pmol/mL (0.125 Unit), no stool (human hemoglobin (human) [14]): 18%; Residual Hb ratio (%), 37°C 14 days, Hpt 1.55 pmol/mL (0.25 Unit), no stool (human hemoglobin (human) [14]): 28%; Residual Hb ratio (%), 37°C 14 days, Hpt 2.325 pmol/mL (0.25 Unit), 0.5% feces (human hemoglobin (human) [14]): 18%; Residual Hb ratio (%), 37°C 14 days, Hpt 3.1 pmol/mL (0.5 Unit), no stool (human hemoglobin (human) [14]): 57%; Residual Hb ratio (%), 37°C 14 days, Hpt 4.65 pmol/mL (0.5 Unit), 0.5% feces (human hemoglobin (human) [14]): 38%; Residual Hb ratio (%), 37°C 14 days, Hpt 6.2 pmol/mL (1 Unit), no stool (human hemoglobin (human) [14]): 100%; Residual Hb ratio (%), 37°C 14 days, Hpt 9.3 pmol/mL (1 Unit), 0.5% feces (human hemoglobin (human) [14]): 95%; residual Hb ratio, 1 Unit of Hpt, 37°C 7 days, no stool (human hemoglobin (human) [14]): > 70%
